The values that follow are results of earlier work, collected in patent US20130267588A1, “HYDROXYTYROSOL ETHERS” (FUNDACIO IMIM, priority 2010, published 2013).

The chains behind the UniProt entries cited, without tags or fusion partners.
UniProt P20272, whole entry: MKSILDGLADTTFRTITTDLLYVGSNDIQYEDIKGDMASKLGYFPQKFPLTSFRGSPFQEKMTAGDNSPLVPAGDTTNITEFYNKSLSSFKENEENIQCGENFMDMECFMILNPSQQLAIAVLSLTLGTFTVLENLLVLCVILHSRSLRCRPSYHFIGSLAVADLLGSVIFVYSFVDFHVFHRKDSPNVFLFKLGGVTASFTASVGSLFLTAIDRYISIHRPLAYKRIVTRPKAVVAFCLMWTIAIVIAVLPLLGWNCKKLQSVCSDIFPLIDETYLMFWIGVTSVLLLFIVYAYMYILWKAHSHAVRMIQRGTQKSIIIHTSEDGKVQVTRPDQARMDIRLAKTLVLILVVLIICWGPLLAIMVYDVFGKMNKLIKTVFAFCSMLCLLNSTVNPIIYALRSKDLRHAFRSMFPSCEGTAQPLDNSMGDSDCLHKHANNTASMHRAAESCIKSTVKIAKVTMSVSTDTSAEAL

The series addresses T1, CB1 receptor (Rattus norvegicus, UniProt P20272).
T1 construct: displace [^3H]; from tissue; host or cells: rat cerebellum membranes
The note with it: values listed in the literature (Brit. J. Pharmacol. 1999 128: 684); cited from earlier work.

Turning to `CCCCC/C=C\C/C=C\C/C=C\C/C=C\CCCC(=O)NCCO` [Anandamide], the Ki is 170 nM.
